# Results taken from US20240293352A1 (priority 2021, published 2024).
# Legend:
# [1] = system: VSVΔ51-GFP in 786-0 cells; test: Fold change in GFP-positive area following VSVΔ51-GFP infection in 786-0 cells; type: cell-based, human
# [2] = pH and appearance of vanadyl sulfate solutions; conditions: at the concentration required to enhance oncolytic VSV in vivo
substance,measurement,setting,value
vanadyl sulfate,Fold change in GFP,[1]; Concentration 35.1,11 fold
same,Fold change in GFP,[1]; Concentration 52.7,24 fold
same,Fold change in GFP,[1]; Concentration 79.0,34 fold
same,Fold change in GFP,[1]; Concentration 88.0,43 fold
same,Fold change in GFP,[1]; Concentration 118.5,79 fold
same,Fold change in GFP,[1]; Concentration 132.0,89 fold
same,Fold change in GFP,[1]; Concentration 177.8,119 fold
same,Fold change in GFP,[1]; Concentration 198.0,114 fold
same,Fold change in GFP,[1]; Concentration 266.7,156 fold
same,Fold change in GFP,[1]; Concentration 296.0,178 fold
same,Fold change in GFP,[1]; Concentration 400.0,200 fold
same,Fold change in GFP,[1]; Concentration 444.0,141 fold
same,Fold change in GFP,[1]; Concentration 667.0,119 fold
same,Fold change in GFP,[1]; Concentration 1000.0,76 fold
same,Acidity of unbuffered solution and effect on admixed VSV (in words),[2],highly acidic and leads to rapid inactivation of VSV
